Screening data from PubChem BioAssay.
A selection: hits, their analogues and other compounds. The true share with any hit is near 2.8%.
UUG fidelity – yeast start codon fidelity modulation | S. cerevisiae UUG-firefly luciferase reporter, luminescence/redox ratio | activity score, % at 18.7 µM | 0.13% of 350,000 active | AID 602363;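 active means replicate mean at a twofold rise or more, about +100% in these data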;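 further: firefly luciferase made from a UUG start codon reports start codon fidelity; reporter light over untreated wells divided by growth signal over untreated wells; some hits fall short of that in this replicate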
PglD inh – blocks C. jejuni PglD acetyltransferase activity; actives 0.098% (n = 360,000); AID 602405; purified PglD enzyme, DTNB colorimetric CoA detection; inhibition, % at 12.5 µM; in the data active means inhibition above about 16%, passing the limit was not always enough; inconclusive means no clear call, values can overlap the other calls
PGC1a acetyl inh – modulators of PGC1a acetylation; actives 0.17% (n = 350,000); inhibition, % at 15.6 µM; U2OS PGC1a acetylation, AlphaScreen anti-acetyl-lysine; with virally co-expressed GCN5 acetyltransferase; AID 651687;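 active means every replicate shows inhibition of at least 40%; inconclusive means mean inhibition at least 40% but some replicate below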;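 further: 0% = neutral control wells and 100% = positive control wells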
esBAF inh – inhibitors of esBAF chromatin remodeling in mouse ES cells | Bmi1-luciferase knock-in reporter, 24 h; 100% = twice the neutral-well signal | reporter increase, % at 12.5 µM | actives 2% (n = 350,000) | AID 602393; in the data active means activation above about 40%; inconclusive means no clear call, values can overlap the other calls;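 further: 0% = median of the plate's neutral control wells and 100% = double that signal; a rise in the Bmi1 reporter signal indicates esBAF inhibition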
E-selectin induc – E-selectin induction on HUVECs; P16581; actives 0.37% (n = 260,000); HUVEC E-selectin immunofluorescence imaging; normalized: neutral wells 0, TNF-alpha wells 100; activation, % at 7.58 µM;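 active means mean E-selectin-positive cell signal at least 10% of the positive control, reached in at least 60% of replicates, without over 20% cell loss; inconclusive means no rule given, readout overlaps actives, possibly toxicity-flagged; inactive means the rest, including those meeting only one limit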
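Read-out basis: % PE-positive cells; Test system: HUVEC primary endothelial cells; Technique: immunofluorescence imaging; Dosing: single-point compound dose.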
C2C12 statin – suppression of simvastatin myotoxicity; C2C12 myotubes + simvastatin, ATP luminescence, 48 h; scaled: DMSO 0, geranylgeraniol control 100; rescue of ATP level, % at 7.49 µM; actives 0.78% (n = 330,000); AID 602340;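 active means mean ATP rescue above about 67%, or every replicate alone reaching that limit, limit read from the data, passing the limit was not always enough; inconclusive means no clear call, values can overlap the other calls; inactive means mean under the limit and some replicate under it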;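 further: myotubes were challenged with 10 µM simvastatin during compound exposure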
Active calls of the source: *; ? = inconclusive; / = not tested or not shown.

(1) C[C@H](O)C#Cc1cnc2c(c1)C(=O)N([C@H](C)CO)C[C@H](C)[C@@H](CN(C)C(=O)Nc1ccc(C(F)(F)F)cc1)O2
(2) Cc1c(-c2nc(N)nc(Nc3ccccc3F)n2)oc2ccccc12
(3) Cc1ccc(Nc2nc(N)nc(-c3oc4ccccc4c3C)n2)cc1
(4) Cc1cccc(Nc2nc(N)nc(-c3oc4ccccc4c3C)n2)c1
(5) COc1cccc(Nc2nc(N)nc(-c3oc4ccccc4c3C)n2)c1
(6) C[C@@H]1CN([C@H](C)CO)C(=O)c2cc(C#Cc3ccccn3)cnc2O[C@@H]1CN(C)CC1CCCC1

screen / no.,1,2,3,4,5,6
PglD inh,1,0,/,6,5,/
C2C12 statin,3,8,/,-10,-76,9
UUG fidelity,9,-19,/,0,-10,/
esBAF inh,11,48*,/,57*,51*,1
PGC1a acetyl inh,8,13,15,-8,-8,-12
E-selectin induc,2,/,/,/,/,-3

(7) C[C@@H]1CN([C@H](C)CO)S(=O)(=O)c2ccc(-c3cccnc3)cc2O[C@@H]1CN(C)C(=O)CC1CC1
(8) Cc1nc(CN(C)c2ncnc3ccc(-c4ccc5c(c4)OCO5)cc23)cs1
(9) Cc1noc(C)c1NC(=O)Nc1ccc2c(c1)C(=O)N([C@@H](C)CO)C[C@@H](C)[C@@H](CN(C)C(=O)NC1CCCCC1)OCCCC[C@@H](C)O2
(10) Cc1cc(C)c(C)c(OCc2nc(-c3cccnc3)no2)c1
(11) Cc1ccc(OCc2nc(-c3ccccc3)no2)c(C)c1
(12) Cc1cc(-c2onc(C)c2C(=O)O)no1

screen / no.,7,8,9,10,11,12
PglD inh,2,-4,0,-4,/,-4
C2C12 statin,-6,-14,/,-5,13,-2
UUG fidelity,16,-22,5,-8,/,-2
esBAF inh,-2,43*,1,10,64*,-4
PGC1a acetyl inh,12,14,-6,5,0,7
E-selectin induc,0,/,0,/,/,0

(13) COC(=O)c1c(C)noc1-c1cc(C)on1
(14) COc1ccccc1CN1[C@@H]2CN(C(=O)C3CC3)c3ccccc3[C@@H]2[C@@H]1CO
(15) C[C@@H]1CN([C@H](C)CO)C(=O)c2cc(NC(=O)CCC(F)(F)F)ccc2O[C@@H](C)CCCCO[C@@H]1CN(C)Cc1ccc(C(F)(F)F)cc1
(16) C[C@@H]1CCCCO[C@H](CN(C)Cc2ccc(C(F)(F)F)cc2)[C@H](C)CN([C@H](C)CO)C(=O)c2cc(NC(=O)Cc3ccccc3)ccc2O1
(17) C[C@H]1CN([C@@H](C)CO)C(=O)c2cc(NC(=O)CCC(F)(F)F)ccc2O[C@@H]1CN(C)Cc1ccc(C(F)(F)F)cc1
(18) C[C@@H]1CCCCO[C@H](CN(C)Cc2ccc(C(F)(F)F)cc2)[C@@H](C)CN([C@H](C)CO)C(=O)c2cc(NC(=O)Cc3ccccc3)ccc2O1

screen / no.,13,14,15,16,17,18
PglD inh,-6,-1,1,2,6,3
C2C12 statin,102*,-3,125*,134*,-17,-6
UUG fidelity,-15,0,8,5,1,-7
esBAF inh,4,-1,-5,-1,-15,-3
PGC1a acetyl inh,3,-19,1,?,-9,14
E-selectin induc,/,0,0,0,38*,0

(19) C[C@@H]1CN([C@@H](C)CO)C(=O)c2cc(NC(=O)CCC(F)(F)F)ccc2O[C@H]1CN(C)Cc1ccc(C(F)(F)F)cc1
(20) CC(C)NC(=O)Nc1ccc2c(c1)C(=O)N([C@@H](C)CO)C[C@H](C)[C@H](CN(C)Cc1ccc(C(F)(F)F)cc1)O2
(21) CN(C)CC#Cc1cccc(-c2nc(C(=O)N3CCN(Cc4ccccc4)CC3)cc3c2[C@H](CCO)N(S(=O)C(C)(C)C)C3)c1 (some centres not stated)
(22) COc1cccc(-c2cn(CC[C@@H]3CC[C@@H](NS(=O)(=O)Cc4ccccc4)[C@@H](CO)O3)nn2)c1
(23) C[C@@H]1CCCCO[C@H](CN(C)Cc2ccc(C(F)(F)F)cc2)[C@H](C)CN([C@H](C)CO)C(=O)c2cc(NS(=O)(=O)c3cccs3)ccc2O1
(24) C[C@@H]1CCCCO[C@@H](CN(C)Cc2ccc(C(F)(F)F)cc2)[C@H](C)CN([C@@H](C)CO)C(=O)c2cc(NS(=O)(=O)c3cccs3)ccc2O1

screen / no.,19,20,21,22,23,24
PglD inh,-4,1,/,0,2,4
C2C12 statin,0,3,/,1,-60,72*
UUG fidelity,2,2,/,/,9,-4
esBAF inh,-5,3,/,5,5,9
PGC1a acetyl inh,-5,6,-2,-9,-13,-9
E-selectin induc,6,51*,/,0,0,0

(25) C[C@@H]1CCCCO[C@@H](CN(C)Cc2ccc(C(F)(F)F)cc2)[C@@H](C)CN([C@@H](C)CO)C(=O)c2cc(NC(=O)CCC(F)(F)F)ccc2O1
(26) c1ccc(-c2nnsc2Sc2ccccn2)cc1
(27) CSc1snnc1-c1ccccc1
(28) c1ccc2c(c1)CCN(Cc1nnnn1Cc1ccc3c(c1)OCO3)C2
(29) Cc1cccc(NC(=S)NNC(=O)c2sccc2C)c1
(30) Cc1ccsc1C(=O)NNC(=S)NCC(C)C

screen / no.,25,26,27,28,29,30
PglD inh,17,/,/,9,5,/
C2C12 statin,83*,-3,/,125*,-1,-1
UUG fidelity,12,/,/,-3,-33,/
esBAF inh,-3,54*,/,-1,42*,9
PGC1a acetyl inh,13,-3,4,0,0,20
E-selectin induc,0,/,-1,/,/,/

(31) CCc1cc(C(=O)NNC(=S)Nc2cccc(C)c2)cs1
(32) Cc1cccc(NC(=S)NNC(=O)c2csc(C(C)C)c2)c1
(33) O=c1/c(=C\c2cccnc2)sc2nc3ccccc3n12
(34) O=C(O)c1ccc(/C=N/Nc2cccc(C(F)(F)F)c2)cc1
(35) O=C(O)c1cccc(N/N=C/c2ccc(F)c(F)c2)c1
(36) COc1cccc(N2CCN(c3ncnc4c3[nH]c3ccc(F)cc34)CC2C)c1 (configuration not stated)

screen / no.,31,32,33,34,35,36
PglD inh,1,/,5,-4,-2,6
C2C12 statin,3,18,-29,-7,-1,-261
UUG fidelity,-28,-32,-8,0,-4,-3
esBAF inh,50*,6,66*,88*,31,-13
PGC1a acetyl inh,12,8,0,-5,/,77*
E-selectin induc,1,-1,/,6,0,/

(37) COc1cc2[nH]c3c(N4CCN(c5ccc(Cl)cc5)CC4)ncnc3c2cc1OC
(38) O=C(N[C@@H]1CC[C@@H](CCNS(=O)(=O)c2ccc(Cl)cc2)O[C@@H]1CO)c1ccccn1
(39) Cc1ccc(Nc2nc(COC(=O)COc3ccc(C=O)cc3)cs2)cc1
(40) O=C(COc1ccc(Cl)cc1)OCc1csc(Nc2ccccc2)n1
(41) Cc1noc(C)c1NC(=O)N(C)C[C@@H]1Oc2ccc(NS(=O)(=O)c3ccccc3)cc2CC(=O)N([C@H](C)CO)C[C@H]1C
(42) COc1ccc(NC(=S)Nc2cc(C)ccn2)c(OC)c1
(43) COc1ccc(NC(=S)Nc2ccccc2OC)c(OC)c1
(44) COc1ccc(NC(=S)Nc2ccccn2)c(OC)c1

screen / no.,37,38,39,40,41,42,43,44
PglD inh,0,-8,0,-6,0,-3,/,6
C2C12 statin,24,3,0,10,9,-2,/,-30
UUG fidelity,-7,/,-14,-15,5,-12,/,-15
esBAF inh,4,7,49*,2,-2,68*,/,69*
PGC1a acetyl inh,-4,-16,3,-3,12,/,4,5
E-selectin induc,/,-1,/,/,-20,/,/,/
